Experiments:
[1] = tested on: E2 production in KGN cells; assay: Estradiol (E2) production in cultured KGN cells (RIA); type: cell-based, human; details: 20 ng/ml, 7 days
Method: The media was collected and the E2 content in the media was determined by specific RIA (SRL, Inc. Tokyo, Japan).

By UniProt entry, the sequences of proteins in these tests, tags left out. Where a name states a change or a piece, a line headed by the entry shows the natural chain unless it says otherwise.
UniProt P11511: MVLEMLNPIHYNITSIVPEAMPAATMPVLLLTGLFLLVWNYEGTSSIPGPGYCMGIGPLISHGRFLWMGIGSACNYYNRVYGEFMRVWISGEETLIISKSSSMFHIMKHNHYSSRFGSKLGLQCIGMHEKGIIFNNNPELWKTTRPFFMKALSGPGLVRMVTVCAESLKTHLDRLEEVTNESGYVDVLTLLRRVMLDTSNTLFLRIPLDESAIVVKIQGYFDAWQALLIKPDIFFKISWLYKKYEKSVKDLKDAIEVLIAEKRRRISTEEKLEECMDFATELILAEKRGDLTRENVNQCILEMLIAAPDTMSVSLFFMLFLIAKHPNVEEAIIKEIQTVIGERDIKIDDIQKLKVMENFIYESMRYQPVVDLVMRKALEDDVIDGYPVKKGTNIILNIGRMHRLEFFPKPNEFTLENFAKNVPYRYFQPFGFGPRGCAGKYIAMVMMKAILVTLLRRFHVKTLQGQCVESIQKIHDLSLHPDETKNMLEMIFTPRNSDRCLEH

[2] = target: T1, aromatase (Homo sapiens, UniProt P11511); assay: Aromatase activity in KGN cells by [3H]H2O release assay; type: cell-based; details: 20 ng/ml
T1 construct: endogenous in cells; host or cells: KGN human ovarian granulosa-like tumor cell line (RIKEN RCB 1154)
Method: Assaying for inhibition or activation of aromatase activity may be carried out by measuring the amount of [^3H]H2O released upon conversion of [1β-^3H]androstenedione to estrone using a modification of the method of Ackerman et al, J. Clin. Endocrinol. Metab., 53:412–417 (1981), or as described in Example 3 below. Briefly, the cells are plated on a petri dish (Falcon 3001) in culture medium with 10% (v/v) fetal calf serum (FCS). At is confluence, the culture medium is replaced with DMEM/Ham's F-12 containing 5.0–10% (v/v) dextran-coated, charcoal-treated FCS (DCS) (Hyclone, Logan Utah), and incubated for another 12 h in the presence or absence of 10^−5–10^−2 M db-cAMP (Wako Pure Chemical Industries Ltd.) and the test compound. After treatment, the cells are further incubated with 12.5 nM [1β-^3H]androstenedione (NEN Life Science Products, Boston, Mass.; SA, 27.5 Ci/mmol) for 6–12 h. After incubation, the medium (2.0 ml) is transferred to tubes containing 1.0 ml ice-cold 30% (w/v) trichloroacetic acid (TCA), and then centrifuged to remove precipitated protein. The cells are harvested using 0.25% (w/v) trypsin-1.0 mM EDTA to determine the protein concentration. The protocol for the extraction of the medium to measure the amount of [^3H]H2O is performed as described by Tanaka et al, Calcif. Tissue Int., 52:107–109 (1993). Finally, the amount of radioactivity in the [^3H]H2O is corrected by subtracting the blank values from each sample. The cell protein content is determined using a micro bicinichoninic acid kit (Pierce Chemical Co., Rockford, Ill.) after the cells are dissolved in 1.0 N NaOH. The aromatase activity is expressed as picomoles per mg cell protein. As a control, the aromatase activities of human granulosa cells (obtained from in vitro fertilization programs), human fibroblast, and HOS cell (human osteoblast-like cell line) (Tanaka et al, supra) can be measured in the same manner.
More specifically, aromatase activity was determined by measuring [^3H] H2O release upon conversion of [1β-^3H]androstenedione (A) to estrone (E1), as described by Mu et al, Biochem. Biophys. Res. Commun., 271(3):710–713 (2000). [1β-^3H]androstenedione was purchased from Amersham Pharmacia Biotech (Boston, Mass.).
The medium (2.0 ml) was extracted with chloroform, and was then centrifuged. The aqueous supernatant was mixed with 5.0% (w/v) charcoal/0.5% (w/v) dextran, and incubated for 30 min. Thereafter, the mixture was centrifuged and the supernatant was added to 5.0 ml of scintillation fluid and assayed for radioactivity. The amount of radioactivity in [^3H]H2O thus measured was standardized based on the protein concentration, which was determined using a micro BCA kit (Pierece Chemical Co., Rockford, Ill.), and expressed as pmol/mg protein/6 h.

[3] = tested on: KGN cells; assay: Effect on KGN cell growth (cell counting, trypan blue exclusion); type: cell-based, human; details: less than 50 ng/ml (2 or 20 ng/ml), 7 days
Method: TBT and TPT were obtained from the Sigma Chemical Co. (St. Louis, Mo.). Further, both compounds were dissolved in ethanol, and the final concentration of ethanol in the cell growth medium was 0.1% (w/v).
More specifically, the cells were plated onto a 24-well plate at 1×10^4 cells/well in DMEM/F-12 supplemented with 10% (v/v) FCS. […] After washing, the cells were trypsinized and then counted using a hemocytometer every 48 h for 7 days. Cell viability was assessed by the trypan blue exclusion method.

[4] = basal or 10^−4 M db-cAMP-stimulated, 7-day period

tributyltin [TBT]
E2 concentration in the medium [1]: significant decrease | aromatase activity, % of the baseline ([2]; 72 h, basal (no db-cAMP)): about 30% | time of first significant inhibition of aromatase activity after addition [2, 4]: 3 days | time of maximal inhibition of aromatase activity [2, 4]: 7 days | effect on db-cAMP-induced increase in aromatase activity ([2]; with 10^−4 M db-cAMP): suppressed | effect on KGN cell proliferation [3]: little effect

Reference: patent publication US7018806B2, “Method for identifying endocrine disruptors and kit for carrying out the same” (priority 2001, dated 2006)
